Among the data in ChEMBL document CHEMBL1158365, “Alkyne chemistry in crop protection” (2009) are LC50 values, retold here.

Experiment [1] deals with Musca domestica. The experiment is described as follows: Insecticidal activity against Musca domestica.
Experiment [2] relates to Musca domestica. In words: Insecticidal activity against Musca domestica in presence of synergist piperonyl butoxide.

As to `CC(C)(C)C12COC(c3ccc(Cl)cc3)(OC1)OC2`, the LC50 in the experiment with Musca domestica [1] is 10 µg/g; with Musca domestica [2], 1.5 µg/g.

In the case of `C#Cc1ccc(C23OCC(C(C)(C)C)(CO2)CO3)cc1`, the LC50 with Musca domestica [1] was determined as 0.087 µg/g; in the experiment on Musca domestica [2] it was 0.011 µg/g.

Regarding `CC(C)(C)C12COC(c3ccc(Br)cc3)(OC1)OC2`, the LC50 was found to be 3.5 µg/g in the experiment with Musca domestica [1] and 0.83 µg/g with Musca domestica [2].

As for `CC(C)(C)C12COC(c3ccc(C#N)cc3)(OC1)OC2`, the LC50 is 4.8 µg/g with Musca domestica [1] and 0.23 µg/g in the experiment with Musca domestica [2].
